Literature values, collected in patent publication US20240024490A1 (published 2024).

Tested on: ID-8
Conditions: read-out: ID-8 IC50; cited from earlier work

CN1CC[C@H](c2c(O)cc(O)c3c(=O)cc(-c4ccccc4Cl)oc23)[C@H](O)C1 [Flavopiridol (1), flavopiridol]
IC50: 7 nM
